Measurements reported in patent US9101562B2, “Additives for chlorine dioxide-containing compositions” (BASF CORPORATION, priority 2010, dated 2015).

Assay: Chlorine dioxide compatibility: ClO2 decrease in 200 ppm ClO2 test samples containing an additive (UV/Vis absorption or titration)
Format: physicochemical

Sodium cyclamate [compound 8]
ClO2 decrease @ 8 hrs: 3%
chlorine dioxide concentration versus time behaviour: steep immediate declines in chlorine dioxide concentration, followed by much more gradual declines
